Values of other authors, collected in paper PMC4645461, “Increased food intake with oxyntomodulin analogues” (Peptides, 2015).

Experiments:
[1] = no reference given; cited from earlier work
Text: Additionally, methods of peptide administration differ: some studies infused peptides while others administer ...

[2] = ref [36],[37]; cited from earlier work

Question: Which “stability in solution” value [1] does the source give for oxyntomodulin [OXM] here?
Answer: unstable in solution

Question: And the “blood glucose” value [2]?
Answer: does not elevate blood glucose
